Patent US20250163048A1 (Tango Therapeutics, Inc., priority 2022, published 2025)

Assays:
MTAP-deleted cell line = assay: viability assay for the MTAP-deleted cell line; type: cell-based; details: Homo sapiens, HAP1, viability assay
[1] = tested on: HAP1 MTAP-intact cell line; assay: SDMA in-cell western assay, HAP1 MTAP-intact; details: Homo sapiens
[2] = tested on: HAP1 MTAP-deleted cell line; assay: SDMA in-cell western assay, HAP1 MTAP-deleted; details: for IC50 / IC90: Homo sapiens; for Hap1 MTAP intact/deleted ratio: IC50 ratio between HAP1 MTAP-intact and HAP1 MTAP-deleted cell line
[3] = HAP1, read-out: Hap1 MTAP intact IC50, SDMA in-cell western assay, HAP1 MTAP-intact cell line
[4] = HAP1, read-out: Hap1 MTAP deleted IC50, SDMA in-cell western assay, HAP1 MTAP-deleted cell line
[5] = HAP1, read-out: Hap1 MTAP deleted IC90, SDMA in-cell western assay, HAP1 MTAP-deleted cell line
[6] = HAP1, read-out: Hap1 MTAP intact IC50, SDMA in-cell western, HAP1 MTAP-intact cell line
[7] = HAP1, read-out: Hap1 MTAP deleted IC50, SDMA in-cell western, HAP1 MTAP-deleted cell line
[8] = HAP1, read-out: Hap1 MTAP deleted IC90, SDMA in-cell western, HAP1 MTAP-deleted cell line

| Compound | IC50 [1, 3] | IC50 [2, 4] | IC90 [2, 5] | IC50 [1, 6] | IC50 [2, 7] | IC90 [2, 8] | IC50 (MTAP-deleted cell line) | Hap1 MTAP intact/deleted ratio ([2]; SDMA in-cell western assay) | Hap1 MTAP intact/deleted ratio ([2]; SDMA in-cell western) |
| --- | --- | --- | --- | --- | --- | --- | --- | --- | --- |
| CC(C)n1cc2ccc([C@H]3CC[C@H](C)CN3C(=O)C(=O)Nc3cnc(N)c4cn[nH]c34)cc2n1 (racemic) [Compound 240, N-(4-Amino-1H-pyrazolo[4,3-c]pyridin-7-yl)-2-oxo-2-[rac-(2R,5S)-2-(2-isopropylindazol-6-yl)-5-methyl-1-piperidyl]acetamide] | < 5 nM | < 5 nM | < 75 nM | – | – | – | < 100 nM | C (“C” indicates an IC50 ratio of less than 15 fold) | – |
| C[C@@H]1CC[C@@H](c2ccc3sc(CCN(C)C)nc3c2)N(C(=O)C(=O)Nc2cncc3cn[nH]c23)C1 (relative stereo) [Compound 70, rel-2-((2R,5S)-2-(2-(2-(dimethylamino)ethyl)benzo[d]thiazol-5-yl)-5-methylpiperidin-1-yl)-2-oxo-N-(1H-pyrazolo[4,3-c]pyridin-7-yl)acetamide] | – | – | – | > 50 nM | > 50 nM | > 125 nM | > 1000 nM | – | C (“C” indicates an IC50 ratio of less than 15 fold) |
| C[C@H]1CC[C@H](c2ccc3sc([C@H]4CCN(C)C(C)(C)C4)nc3c2)N(C(=O)C(=O)Nc2cncc3c(N)nccc23)C1 (single isomer, unassigned) [Compound 103] | – | – | – | 5 to 50 nM | < 5 nM | < 75 nM | < 100 nM | – | B (“B” indicates an IC50 ratio greater than or equal to 15 fold but lower than 30 fold) |
| C[C@H]1CC[C@H](c2ccc3sc(C[C@@H]4CCN(C)C[C@H]4C)nc3c2)N(C(=O)C(=O)Nc2cncc3cn[nH]c23)C1 (single isomer, unassigned) [Compound 156] | – | – | – | 5 to 50 nM | < 5 nM | < 75 nM | < 100 nM | – | B (“B” indicates an IC50 ratio greater than or equal to 15 fold but lower than 30 fold) |
| C[C@H]1C[C@H](c2nc3cc([C@H]4CC[C@H](C)CN4C(=O)C(=O)Nc4cncc5cn[nH]c45)ccc3s2)CN(C)C1 (single isomer, unassigned) [Compound 179] | – | – | – | > 50 nM | < 5 nM | < 75 nM | < 100 nM | – | B (“B” indicates an IC50 ratio greater than or equal to 15 fold but lower than 30 fold) |
| Cc1ncc(NC(=O)C(=O)N2C[C@@H](C)CC[C@@H]2c2ccc3sc(C4CCN(C)CC4)nc3c2)c2[nH]ncc12 [Compound 9, N-(4-methyl-1H-pyrazolo[4,3-c]pyridin-7-yl)-2-oxo-2-[(2R,5S)-5-methyl-2-[2-(1-methyl-4-piperidyl)-1,3-benzothiazol-5-yl]-1-piperidyl]acetamide] | – | – | – | 5 to 50 nM | < 5 nM | < 75 nM | < 100 nM | – | C (“C” indicates an IC50 ratio of less than 15 fold) |
| C[C@H]1CC[C@H](c2ccc3sc(N4CCN(C)CC4)nc3c2)N(C(=O)C(=O)Nc2cncc3cn[nH]c23)C1 [Compound 40, 2-((2R,5S)-5-methyl-2-(2-(4-methylpiperazin-1-yl)benzo[d]thiazol-5-yl)piperidin-1-yl)-2-oxo-N-(1H-pyrazolo[4,3-c]pyridin-7-yl)acetamide] | – | – | – | 5 to 50 nM | < 5 nM | < 75 nM | < 100 nM | – | C (“C” indicates an IC50 ratio of less than 15 fold) |
| C[C@H]1CC[C@H](c2ccc3sc(C4CCN(C)CC4)nc3c2)N(C(=O)C(=O)Nc2cncc3c(N)nccc23)C1 [Compound 41, N-(8-amino-2,7-naphthyridin-4-yl)-2-((2R,5S)-5-methyl-2-(2-(1-methylpiperidin-4-yl)benzo[d]thiazol-5-yl)piperidin-1-yl)-2-oxoacetamide] | – | – | – | > 50 nM | < 5 nM | < 75 nM | < 100 nM | – | A (“A” indicates an IC50 ratio greater than or equal to 30 fold) |
| C[C@H]1CC[C@H](c2cccc(OC[C@H]3CCCN3C)c2)N(C(=O)C(=O)Nc2cncc3cn[nH]c23)C1 [Compound 118, 2-((2R,5S)-5-methyl-2-(3-(((R)-1-methylpyrrolidin-2-yl)methoxy)phenyl)piperidin-1-yl)-2-oxo-N-(1H-pyrazolo[4,3-c]pyridin-7-yl)acetamide] | – | – | – | > 50 nM | 5 to 50 nM | > 125 nM | 100 to 1000 nM | – | A (“A” indicates an IC50 ratio greater than or equal to 30 fold) |
| C[C@H]1CC[C@H](c2ccc3c(cnn3C)c2)N(C(=O)C(=O)Nc2cnc(N)c3cn[nH]c23)C1 [Compound 152, N-(4-amino-1H-pyrazolo[4,3-c]pyridin-7-yl)-2-((2R,5S)-5-methyl-2-(1-methyl-1H-indazol-5-yl)piperidin-1-yl)-2-oxoacetamide] | – | – | – | 5 to 50 nM | < 5 nM | < 75 nM | < 100 nM | – | B (“B” indicates an IC50 ratio greater than or equal to 15 fold but lower than 30 fold) |

More lines, main results first:

| IC50 [1, 3] | IC50 [2, 4] | IC90 [2, 5] | IC50 [1, 6] | IC50 [2, 7] | IC90 [2, 8] | Compound | IC50 (MTAP-deleted cell line) | Hap1 MTAP intact/deleted ratio ([2]; SDMA in-cell western assay) | Hap1 MTAP intact/deleted ratio ([2]; SDMA in-cell western) |
| --- | --- | --- | --- | --- | --- | --- | --- | --- | --- |
| 5 to 50 nM | < 5 nM | < 75 nM | – | – | – | Cc1ccc([C@H]2CC[C@H](C)CN2C(=O)C(=O)Nc2cnc(N)c3cn[nH]c23)cc1 (racemic) [Compound 207, N-(4-Amino-1H-pyrazolo[4,3-c]pyridin-7-yl)-2-oxo-2-[rac-(2R,5S)-5-methyl-2-(p-tolyl)-1-piperidyl]acetamide] | < 100 nM | B (“B” indicates an IC50 ratio greater than or equal to 15 fold but lower than 30 fold) | – |
| 5 to 50 nM | < 5 nM | < 75 nM | – | – | – | C[C@@H]1CC[C@@H](c2cccs2)N(C(=O)C(=O)Nc2cnc(N)c3cn[nH]c23)C1 (racemic) [Compound 217, N-(4-Amino-1H-pyrazolo[4,3-c]pyridin-7-yl)-2-oxo-2-[rac-(2R,5S)-5-methyl-2-(2-thienyl)-1-piperidyl]acetamide] | < 100 nM | B (“B” indicates an IC50 ratio greater than or equal to 15 fold but lower than 30 fold) | – |
| 5 to 50 nM | < 5 nM | < 75 nM | – | – | – | C[C@H]1CC[C@H](c2ccc3c(c2)CN(C)CC3)N(C(=O)C(=O)Nc2cnc(N)c3cn[nH]c23)C1 (racemic) [Compound 279, N-(4-Amino-2H-pyrazolo[4,3-c]pyridin-7-yl)-2-oxo-2-[rac-(5S)-5-methyl-2-(2-methyl-3,4-dihydro-1H-isoquinolin-7-yl)-1-piperidyl]acetamide] | < 100 nM | C (“C” indicates an IC50 ratio of less than 15 fold) | – |
| – | – | – | > 50 nM | 5 to 50 nM | – | Cc1cnc2cc(NC(=O)C(=O)N3C[C@@H](C)CC[C@@H]3c3ccc4sc(CCN5CCCC5)nc4c3)ccn12 [Compound 24, 2-((2R,5S)-5-methyl-2-(2-(2-(pyrrolidin-1-yl)ethyl)benzo[d]thiazol-5-yl)piperidin-1-yl)-N-(3-methylimidazo[1,2-a]pyridin-7-yl)-2-oxoacetamide] | 100 to 1000 nM | – | A (“A” indicates an IC50 ratio greater than or equal to 30 fold) |
| – | – | – | 5 to 50 nM | < 5 nM | < 75 nM | C[C@H]1CC[C@H](c2ccc3cn(C)nc3c2)N(C(=O)C(=O)Nc2cnc(N)c3cn[nH]c23)C1 [Compound 180, N-(4-amino-1H-pyrazolo[4,3-c]pyridin-7-yl)-2-oxo-2-[(2R,5S)-5-methyl-2-(2-methylindazol-6-yl)-1-piperidyl]acetamide] | < 100 nM | – | B (“B” indicates an IC50 ratio greater than or equal to 15 fold but lower than 30 fold) |

Read-outs that look alike come from different tables or passages of the source.
